Results on one compound are retold here after PubChem BioAssay AID1970 (National Center for Advancing Translational Sciences (NCATS), 2009).

Amino acid sequences for entries named in this document (tags omitted). A change or cut given only in a name is not applied to a line headed by its entry.
UniProt Q9HAZ1: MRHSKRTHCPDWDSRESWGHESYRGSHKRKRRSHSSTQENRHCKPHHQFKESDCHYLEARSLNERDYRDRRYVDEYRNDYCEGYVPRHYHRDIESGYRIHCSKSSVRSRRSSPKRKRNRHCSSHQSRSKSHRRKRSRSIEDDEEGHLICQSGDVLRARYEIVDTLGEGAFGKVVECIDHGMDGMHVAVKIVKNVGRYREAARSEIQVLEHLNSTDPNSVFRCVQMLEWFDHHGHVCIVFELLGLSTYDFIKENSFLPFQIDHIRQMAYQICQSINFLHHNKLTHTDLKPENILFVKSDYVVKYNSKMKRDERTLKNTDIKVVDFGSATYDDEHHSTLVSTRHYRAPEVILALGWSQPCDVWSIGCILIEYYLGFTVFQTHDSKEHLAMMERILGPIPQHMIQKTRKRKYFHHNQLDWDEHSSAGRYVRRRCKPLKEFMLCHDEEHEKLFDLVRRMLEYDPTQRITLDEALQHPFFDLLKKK

The assay addresses Dual specificity protein kinase CLK4 (Homo sapiens) (UniProt Q9HAZ1). Nature of the assay: Confirmation Assay for Inhibitors of CDC-like Kinase 4 (Kinase-Glo Assay). Conditions: recombinant Clk4, Kinase-Glo ATP depletion luminescence. The procedure: NIH Molecular Libraries Probe Production Centers Network [MLPCN] NIH Chemical Genomics Center [NCGC] MLPCN Grant: 1R03MH084827-01 Assay Submitter (PI): Tom Misteli NCGC Assay Overview: Clk4 (Invitrogen, cat# PV3839) was assayed using ATP and the RS repeat peptide (AnaSpec cat # 61722) as substrates. Following the Clk4 reaction, the remaining ATP levels were detected using Promega Kinase-Glo technology wherein the remaining ATP from the kinase reaction is detected using Ultra-Glo luciferase and D-luciferin which generates a bioluminescence signal from the ATP. The positive control for the assay was TG003 (Sigma-Aldrich, cat# 300801-52-9) which has been described as an inhibitor of Clk 4[1].
NCGC Assay Protocol Summary: Two uL/well of substrate-buffer solution (100 uM RS peptide, 1 uM ATP, 25 mM Tris pH7.5, 10 mM MgCl2, 0.5 mM EGTA, 2.5 mM DTT, 0.01% Triton X-100 final concentration) was dispensed into 1536-well, assay plates (Greiner, solid white medium-binding plates) with Aurora Discovery BioRAPTR Flying Reagent Dispenser (FRD; Beckton-Dickenson). Using a Kalypsys pin tool equipped with a 1536-pin tool, 23 nL of compound solution was transferred to the assay plate. […] Luminescence was detected with the ViewLux plate reader (Perkin Elmer, Waltham, MA) after 5 min incubation using a 5 second exposure time and 2x binning.
For orientation: Kinase-Glo measures the ATP left after a reaction by luminescence.

Each structure is given as a SMILES string. Only a part is listed here, and it is no random draw. Results filed as inconclusive are left out. Activity calls are given as the source filed them. Calls come from the whole dose curve; as a rule, active = well fitted inhibition curve with a large enough effect; inconclusive = small, poorly fitted or top-dose-only effect; inactive = flat fitted curve, though single readings scatter.

As to `CCN1/C(=C/C(C)=O)Sc2ccc(OC)cc21`, the Potency is active: 0.0336 µM.
